For assay [1], the target named is T1, mouse EPN1 expressed by mouse cell lines (mouse, UniProt Q80VP1 1-575).
T1 construct: whole, on cells; also called murine EPN1
T1 sequence (looked up): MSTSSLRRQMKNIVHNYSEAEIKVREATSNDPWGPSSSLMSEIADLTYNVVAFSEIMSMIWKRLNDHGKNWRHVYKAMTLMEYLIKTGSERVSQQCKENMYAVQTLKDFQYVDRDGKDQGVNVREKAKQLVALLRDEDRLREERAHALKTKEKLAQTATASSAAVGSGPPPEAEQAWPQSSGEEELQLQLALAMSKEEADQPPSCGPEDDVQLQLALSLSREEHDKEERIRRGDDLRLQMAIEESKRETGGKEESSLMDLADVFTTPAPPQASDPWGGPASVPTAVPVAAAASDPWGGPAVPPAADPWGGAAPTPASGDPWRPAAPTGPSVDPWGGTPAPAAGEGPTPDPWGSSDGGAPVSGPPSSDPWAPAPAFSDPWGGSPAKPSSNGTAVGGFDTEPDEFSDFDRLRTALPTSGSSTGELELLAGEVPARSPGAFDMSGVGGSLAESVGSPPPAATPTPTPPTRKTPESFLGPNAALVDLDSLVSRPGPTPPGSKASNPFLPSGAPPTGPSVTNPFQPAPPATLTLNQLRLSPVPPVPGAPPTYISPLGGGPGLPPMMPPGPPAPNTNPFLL
Put plainly: flow cytometry, EMT6 cells (mouse tumor line). On the technique in general: Flow cytometry measures light scatter and fluorescence of single cells or particles in a stream.

The target of assay [2] is T1, mouse EPN1 expressed by mouse cell lines. Nature of the assay: flow cytometry, 4T1 cells (mouse tumor line).
Assay [3] deals with T2, human EPN1 expressed by human cell lines (human, UniProt Q9Y6I3 1-576).
T2 construct: Endogenous EPN1 of human tumour and normal cell lines, stained on live cells or on fixed and permeabilised cells, or immunoprecipitated; The cell lines were not engineered to express it; also called surface EPN1; huEPN1
T2 sequence: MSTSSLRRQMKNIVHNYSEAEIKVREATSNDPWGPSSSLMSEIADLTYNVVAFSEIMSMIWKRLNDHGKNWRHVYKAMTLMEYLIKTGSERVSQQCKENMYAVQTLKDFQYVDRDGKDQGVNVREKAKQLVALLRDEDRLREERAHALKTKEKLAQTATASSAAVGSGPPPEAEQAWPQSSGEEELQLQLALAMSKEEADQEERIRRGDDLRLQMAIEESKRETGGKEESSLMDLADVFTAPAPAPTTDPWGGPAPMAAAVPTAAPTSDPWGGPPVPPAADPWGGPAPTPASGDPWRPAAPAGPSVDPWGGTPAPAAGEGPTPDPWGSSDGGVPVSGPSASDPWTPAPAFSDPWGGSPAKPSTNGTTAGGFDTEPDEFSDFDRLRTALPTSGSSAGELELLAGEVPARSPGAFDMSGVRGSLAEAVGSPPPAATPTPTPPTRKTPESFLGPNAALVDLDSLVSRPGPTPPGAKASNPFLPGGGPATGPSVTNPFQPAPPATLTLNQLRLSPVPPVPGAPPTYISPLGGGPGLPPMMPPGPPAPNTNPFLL
Nature of the assay: flow cytometry, DMS114 cells (human tumor line).

The target of assay [4] is T2, human EPN1 expressed by human cell lines. Nature of the assay: flow cytometry, H660 cells (human tumor line).
For assay [5] the target is unchanged. Nature of the assay: flow cytometry, H1735 cells (human tumor line).
For assay [6], the target named is T3, recombinant EPN1 (Origene, cat #TP307099) (human, UniProt Q9Y6I3 1-576).
T3 construct: Bought protein; also called Epsin-1; Epsin 1
T3 sequence: T2 sequence
Put plainly: SPR, IMM20059 captured at 1000 RU on CM5/Protein A, EPN1 in solution, 25° C. The protocol:
(§1) IMM20059 was captured at four different surface densities (500, 1000, 2600, and 2800 RU) on a CM5/Protein A sensor chip using 10 mM HEPES, pH 7.4, 150 mM NaCl, 0.005% Tween-20, 0.2 mg/mL BSA as a running buffer. EPN1 (Origene Cat #TP307099) or EPN2 (Origene Cat #TP310899) were diluted in running buffer to both 200 nM and 20 nM and analyzed for the ability to bind to the immobilized IMM20059 at 25° C. […] However, as detailed in Table 4, the observed off-rates for binding to EPN1 were dependent upon IMM20059 surface density, with the off-rate on the 500 RU surface being 2.4-times faster than the off-rate measured on the 2800 RU density surface.

Assay [7] deals with T2, human EPN1 expressed by human cell lines. Nature of the assay: flow cytometry, SKMEL28 cells (human tumor line).
For assay [8] the target is unchanged. Nature of the assay: flow cytometry, A375 cells (human tumor line).
Assay [9] addresses T3, recombinant EPN1 (Origene, cat …). Put plainly: SPR, IMM20059 captured at 450 RU on CM5/Protein A, EPN1 in solution, 1:1 model, 25° C., 3rd test. The protocol: The strength of the interaction with recombinant EPN1 was further defined by surface plasmon resonance on a BIAcore2000 at 25° C. in standard running buffer (10 mM HEPES, 150 mM NaCl, 0.005% Tween-20, 0.2 mg/mL BSA, pH 7.4). Protein A surfaces were regenerated between binding cycles with 150 mM phosphoric acid. IMM20059, or an isotype control, were captured on CM5/Protein A sensor surface to generate binding and control surfaces; IMM20059 was captured at approximately 200 and 450 RU, the isotype control was captured to a density of approximately 600 RU. Binding of recombinant EPN1 to each of the three surfaces was tested, in triplicate, using a three-fold dilution series starting with 33.3 nM as the highest concentration. […] Double-subtracted data obtained from the binding measured against the 450 RU IMM20059 surface was fit to a 1:1 binding model.

For assay [10] the target is unchanged. Nature of the assay: SPR, IMM20059 captured at 2600 RU on CM5/Protein A, EPN1 in solution, 25° C. The protocol:
as §1
(In general: In SPR one partner is held on a chip, and binding of the other changes the refractive index at the surface.)

Assay [11] has as its target T2, human EPN1 expressed by human cell lines. Put plainly: flow cytometry, RT4 cells (human tumor line).

Broadly, the Kd is the equilibrium constant for the complex coming apart. What is called koff is the rate constant with which the complex falls apart. Broadly, the kon is the second-order rate constant of association.

B1: IMM20059 (antibody, human IgG1, kappa, V domains shown)
VH: EVQLVESGGGLVQPGGSLRLSCAASGFTFSIHSLNWVRQAPGKGLEWVSYISSNSTTIYYADSVKGRFTISRDNAKDSLYLQMNSLRDEDTAVYYCARDYYCTGGTCFFLPDLWGRGALVTVSS
VL: EIVLTQSPATLSLSPGERATLSCRASQNISNFLAWYQHKPGQAPRLLIYDASIRATGIPARFSGSGSGTDFSLTISSLEPEDFAVYFCQQRYNWLTFGGGTKVEIKR
Regarding B1, the “MFI (fold mean fluorescence index above isotype control)” value in assay [1] was determined as 6 fold; in [2], 8 fold; in [3] it was 12 fold; in assay [4] it was 16 fold; in assay [5], 21 fold; in assay [7], 15 fold. For the same molecule, the “MFI (fold mean fluorescence index above isotype control)” value in [8] worked out at 5 fold; in [11] it was 12 fold. In addition, the dissociation constant (Kd) in assay [6] came to 1.52 nM; in assay [9], 0.95 nM; in assay [10], 1.05 nM. The off-rate constant (koff) stood at 0.000454 s⁻¹ in [6], 0.000721 s⁻¹ in assay [9] and 0.000267 s⁻¹ in assay [10]. Also, the kon in assay [6] came out at 298000 M⁻¹ s⁻¹; in assay [9], 760000 M⁻¹ s⁻¹; in assay [10], 254000 M⁻¹ s⁻¹.

The values above are taken from US20220002435A1 (IMMUNOME, published 2022).
